# Measurements from PubChem BioAssay AID485272 (The Scripps Research Institute Molecular Screening Center, 2010).
# Chains of the proteins cited; added tags and fusions are not shown.
# UniProt Q9UM07, whole entry, looked up: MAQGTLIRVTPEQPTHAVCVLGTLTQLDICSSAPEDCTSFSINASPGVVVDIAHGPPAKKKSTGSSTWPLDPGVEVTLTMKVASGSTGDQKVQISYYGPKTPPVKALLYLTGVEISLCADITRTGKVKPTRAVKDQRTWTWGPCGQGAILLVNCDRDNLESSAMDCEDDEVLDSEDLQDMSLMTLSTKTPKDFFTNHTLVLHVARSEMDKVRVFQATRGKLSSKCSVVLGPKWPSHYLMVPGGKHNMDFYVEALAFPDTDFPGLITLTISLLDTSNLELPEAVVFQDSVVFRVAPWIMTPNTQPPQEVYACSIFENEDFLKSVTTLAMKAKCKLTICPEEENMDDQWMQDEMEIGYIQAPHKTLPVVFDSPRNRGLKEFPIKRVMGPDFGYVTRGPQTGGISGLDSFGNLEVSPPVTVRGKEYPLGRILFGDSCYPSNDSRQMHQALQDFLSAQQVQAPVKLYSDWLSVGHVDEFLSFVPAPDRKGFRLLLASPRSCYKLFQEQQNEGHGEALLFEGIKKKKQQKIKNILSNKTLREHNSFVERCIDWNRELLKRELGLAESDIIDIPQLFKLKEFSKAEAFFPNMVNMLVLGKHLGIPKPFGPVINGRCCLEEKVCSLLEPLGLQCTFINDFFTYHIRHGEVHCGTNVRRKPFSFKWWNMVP
# The entries are a selection whose mix differs from that of the whole data set. The source made the active and inactive calls.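 How the source made its calls: active means percent inhibition above a cutoff equal to the mean of all tested compounds plus 3 SD (cut at about 15% in these data); inactive means the rest.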
# Target: Protein-arginine deiminase type-4 (Homo sapiens) (UniProt Q9UM07)
# Assay: human PAD4 inhibitors, primary screen, biochemical, fluorescence polarization, 1536-well format (AID 485272);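 further: 0% = PAD4 with RCA probe and DMSO and 100% = probe without PAD4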
# Settings: recombinant PAD4, RCA probe fluorescence polarization; at 6.36 µM; hits give high values
row,Compound,inhibition
1,O=C(Nc1ccncc1[N+](=O)[O-])c1ccc([N+](=O)[O-])cc1[N+](=O)[O-],inactive: -8.11%
2,O=C(OC1CN2CCC1CC2)c1cccc([N+](=O)[O-])c1 (configuration not stated),inactive: 5.79%
3,CCOC(=O)c1ccc(NC(=O)C(C)(CCl)SC)cc1 (configuration not stated),inactive: -3.95%
4,CCC(C)N(CC(C)C)C(=S)SC(NC(C)=O)C(Cl)(Cl)Cl (configuration not stated),inactive: -4.3%
5,CCOC(=O)Nc1ccc([As](=O)(O)O)c(O)c1,inactive: 3.99%
6,Cc1cc(SC(NC(=O)c2ccccc2)C(Cl)(Cl)Cl)nc(C(C)C)n1 (configuration not stated),inactive: 1.63%
7,CCOC(=O)Nc1cccc([As](=O)(O)O)c1,inactive: 0.31%
8,Cc1cc(SC(NC=O)C(Cl)(Cl)Cl)ncn1 (configuration not stated),inactive: -4.67%
9,O=P(Nc1ccccn1)(c1cccc2ccccc12)c1cccc2ccccc12,inactive: -3.43%
10,O=C(Nc1cc([As](=O)(O)O)ccc1O)c1ccccc1,inactive: 5.3%
11,O=[N+]([O-])c1ncn(CCn2ncnc2[N+](=O)[O-])n1,inactive: -2.62%
12,CC(C)(C)C(=O)NC(Sc1ccncn1)C(Cl)(Cl)Cl (configuration not stated),inactive: -0.19%
13,O=[N+]([O-])c1cccc(NC2=NCC(CBr)S2)c1 (configuration not stated),inactive: -0.4%
14,COc1ccc(C2=NCC(CBr)S2)cc1 (configuration not stated),inactive: -0.49%
15,Cc1ccc(NP(=O)(Oc2ccccc2)Oc2ccccc2)nc1,inactive: -6.08%
16,O=[N+]([O-])c1cc([N+](=O)[O-])c(CCNc2ccccc2)c([N+](=O)[O-])c1,inactive: -7.25%
17,CCc1nc2c(n1)c1c(non1O)c1c2no[n+]1[O-],inactive: 4.21%
18,CC(=O)N1C2C3N(C(C)=O)C1C1N(C(C)=O)C(C(N1C(C)=O)N3C(C)=O)N2C(C)=O,inactive: 1.99%
19,O=[N+]([O-])c1cccc2n[nH]nc12,inactive: 1.22%
20,CCN(/C(=N/P(=O)(N1CCOCC1)N1CCOCC1)N1CCOCC1)c1ccc(OC)cc1,inactive: 0.34%
21,Nc1ccc([As](=O)(O)c2ccc(N)cc2)cc1,inactive: 5.61%

row,Compound,inhibition
1,C[N+]1=C2C=CC=CC=C2SC12C([N+](=O)[O-])=CC([N+](=O)[O-])=C[C-]2[N+](=O)[O-] (configuration not stated),inactive: -2.43%
2,CC1CCN(C(=O)Oc2c(Cl)cc(Cl)c3cccnc23)CC1,inactive: 0.5%
3,CC(C)=N/N=C(\N)N[N+](=O)[O-],inactive: 2.74%
4,CN(C)C(=O)OCCc1n(C)cc[n+]1C,inactive: -1.53%
5,CN(C(=O)Cc1ccc(Cl)c(Cl)c1)[C@H]1CCCC[C@H]1N1CCCC1,inactive: -0.93%
6,Cc1ccc(N/C(=N/P(=O)(N2CCOCC2)N2CCOCC2)N2CCOCC2)cc1,inactive: -1.44%
7,NC(=O)c1cc([N+](=O)[O-])cc([N+](=O)[O-])c1N,inactive: -10.5%
8,CN1CCCC(OC(=O)C(c2ccccc2)c2ccccc2)C1 (configuration not stated),inactive: 0.47%
9,Clc1ccc(Cl)c(NC2=NCC(CBr)S2)c1 (configuration not stated),inactive: -4.78%
10,COc1ccccc1OP(=O)(Nc1ccc(C)cn1)Oc1ccccc1OC,inactive: -1.88%
11,Cc1ccc(OP(=O)(Nc2nccs2)Oc2ccc(C)cc2)cc1,inactive: -1.8%
12,Oc1ccccc1CNc1ccccn1,inactive: -4.94%
13,O=C(NC(Sc1ccncn1)C(Cl)(Cl)Cl)c1ccccc1 (configuration not stated),inactive: -3.95%
14,Cc1c2non([O-])c-2c(C)[n+](=O)[n+]1[O-],inactive: 1.08%
15,Nc1cc(N)c2nonc2c1[N+](=O)[O-],inactive: -17.9%
16,CC(C)CC(=O)NC(Sc1ccc(Cl)cc1)C(Cl)(Cl)Cl (configuration not stated),inactive: -4.74%
17,O=P(Nc1nc2ccc(Cl)cc2s1)(c1ccccc1)c1ccccc1,inactive: -3.09%
18,CC(=O)Nc1ccc([As](=O)(O)O)cc1,inactive: -1.74%
19,O=C(O)c1ccccc1[As](=O)(O)O,inactive: 13.7%
20,Cc1cc(SC(NC(=O)c2ccc(F)cc2)C(Cl)(Cl)Cl)ncn1 (configuration not stated),inactive: -0.5%
21,CCOP(=O)(Nc1ccccc1)OCC,inactive: -0.3%

row,Compound,inhibition
1,CN(C(=O)Cc1ccc(Cl)c(Cl)c1)[C@H]1CCCC[C@@H]1N1CCCC1,inactive: 1.35%
2,Cc1ccc(NP(=O)(Oc2ccccc2F)Oc2ccccc2F)nc1,inactive: -4.26%
3,O=[N+]([O-])c1cc([N+](=O)[O-])c(CCN2CCOCC2)c([N+](=O)[O-])c1,inactive: -8.64%
4,CCN(N=Nc1nonc1N)c1nonc1N,inactive: 1.93%
5,c1ccc(-c2nn[nH]n2)c(-c2nn[nH]n2)c1,inactive: 1.05%
6,CCOC(=O)NC(Sc1ccccc1)C(Cl)(Cl)Cl (configuration not stated),inactive: -3.56%
7,Cc1ccc(NP(=O)(Oc2cccc(C)c2)Oc2cccc(C)c2)nc1,inactive: -0.01%
8,O=C(NC1CCS(=O)(=O)C1)NP(=S)(Oc1ccccc1)Oc1ccccc1 (configuration not stated),inactive: -3.85%
9,CCNC(=S)/N=C(\N)N[N+](=O)[O-],inactive: -3.07%
10,O=C(OC1CN2CCC1CC2)c1ccccc1 (configuration not stated),inactive: -7.02%
11,CCC(=O)N1C2C3N(C(=O)CC)C1C1N(C(=O)CC)C(C(N1C(=O)CC)N3C(=O)CC)N2C(=O)CC,inactive: -1.31%
12,COC(=O)c1cc2c(s1)N=C(c1ccccc1)N(C)P2(=O)N1CCOCC1 (configuration not stated),inactive: -1.49%
13,Cc1ccc(OP(=O)(Nc2ccccn2)Oc2ccc(C)cc2)cc1,inactive: 2.54%
14,CC(=O)NC(SC(=S)N(CC(C)C)CC(C)C)C(Cl)(Cl)Cl (configuration not stated),inactive: -3.22%
15,CC(NC(=O)COC(=O)C(O)(c1ccccc1)c1ccccc1)c1ccccc1 (configuration not stated),inactive: 0.46%
16,Cc1ccccc1OP(=O)(Nc1ccccn1)Oc1ccccc1C,inactive: -2.78%
17,CN(C)C(=O)Oc1noc2ccccc12,inactive: 0.66%
18,O=P1(Nc2nc3ccc(Cl)cc3s2)COc2ccccc2O1 (configuration not stated),inactive: 1.85%
19,CCOc1ccc(C2=NCC(CBr)S2)cc1 (configuration not stated),inactive: -0.65%
20,CC(C)(C)C(=O)NC(Sc1ccccc1)C(Cl)(Cl)Cl (configuration not stated),inactive: 0.73%
21,Cc1ccccc1CN(C)C(=O)COC(=O)C(O)(c1ccccc1)c1ccccc1,inactive: 1.16%

row,Compound,inhibition
1,C[C@H]1OP(=O)(Oc2ccccc2)C[C@@H]2O[C@@H]21 (some centres not stated),inactive: -2.74%
2,C[C@@H]1C=CCP(=O)(Oc2ccccc2)O1 (some centres not stated),inactive: -1.89%
3,CC(=O)c1ccc(N2CC2c2ccncc2)cc1 (configuration not stated),inactive: 2.39%
4,CC(=O)Nc1ccc([As](=O)(O)O)c(O)c1,inactive: 2.1%
5,CC(=O)Nc1ccc(Oc2c([N+](=O)[O-])cc([N+](=O)[O-])cc2[N+](=O)[O-])cc1,inactive: -5.93%
6,O=P(Nc1nccs1)(c1ccccc1)c1ccccc1,inactive: 1.03%
7,CC(C)C(=O)NC(Sc1ccccc1)C(Cl)(Cl)Cl (configuration not stated),inactive: 0.06%
8,c1nnnn1CCn1cnnn1,inactive: -1.84%
9,CN(C)C1(CNC(=O)c2ccc(Cl)c(S(N)(=O)=O)c2)CCCCC1,inactive: -11.5%
10,O=P(Nc1ccccn1)(c1ccc(Br)cc1)c1ccc(Br)cc1,inactive: -3.42%
11,O=P(Nc1nc2ccccc2s1)(c1ccccc1)c1ccccc1,inactive: -0.02%
12,C[C@H]1OP(=O)(Oc2ccccc2)[C@H](O)[C@H](O)[C@H]1N=[N+]=[N-] (some centres not stated),inactive: 0.8%
13,O=[As](O)(c1ccccc1)c1ccc(O)cc1,inactive: 3.73%
14,O=[N+]([O-])c1ncn(CCn2cnc([N+](=O)[O-])n2)n1,inactive: 4.22%
15,CC(=O)NC(SC(=S)N(C)C)C(Cl)(Cl)Cl (configuration not stated),inactive: -0.35%
16,O=[N+]([O-])c1ccc(O)c(/C=N/Nc2ccc([N+](=O)[O-])cc2[N+](=O)[O-])c1,inactive: -1.52%
17,O=C(OC1CN2CCC1CC2)c1cccc(Cl)c1 (configuration not stated),inactive: 0.73%
18,C(Cc1nn[nH]n1)Cc1nn[nH]n1,inactive: -3.54%
19,Nc1ccc([As](=O)(O)c2ccc([N+](=O)[O-])cc2)cc1,inactive: 2.84%
